Data from US12031152B2, “Nutrient media for the production of slaughter-free meat” (Upside Foods, Inc., priority 2020, dated 2024).

What was measured:
[1] = cited from earlier work
[2] = ADI of trace elements and other components
Description: Several trace elements are essential to cell metabolism and growth. […] As a novel alternative to formulating trace elements directly, the present disclosure discloses the identification and testing of food-safe complexes that innately contain trace elements.

FERRIC NITRATE-9H2O
Safe Reference Level for Human Dietary Intake: Nitrate ADI [1]: Nitrate ADI = 3.7 mg/kg bw/day

HYPOXANTHINE-NA
ADI [2]: 0.3 mg/kg bw-day

SODIUM METAVANADATE
ADI [2]: 0.274 mg/kg bw-day
